Where a name gives a salt, the structure may show the parent alone.

One assay addresses T1, human NTCP (Homo sapiens, UniProt Q14973).
T1 sequence (Q14973 1-349): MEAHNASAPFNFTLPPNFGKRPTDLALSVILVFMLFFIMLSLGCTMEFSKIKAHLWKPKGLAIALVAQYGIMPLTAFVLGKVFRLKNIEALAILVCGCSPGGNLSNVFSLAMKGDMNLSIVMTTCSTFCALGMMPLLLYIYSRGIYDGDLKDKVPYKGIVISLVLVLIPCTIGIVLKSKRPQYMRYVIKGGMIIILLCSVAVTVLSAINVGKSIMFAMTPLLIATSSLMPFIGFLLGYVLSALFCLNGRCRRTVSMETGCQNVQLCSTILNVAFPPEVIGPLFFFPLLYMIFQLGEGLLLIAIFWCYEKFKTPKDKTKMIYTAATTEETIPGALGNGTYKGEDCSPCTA
Description: Screening fluorescent competitive Myrcludex B-FITC binding assay (96-well, 10 µM drug). The conditions noted are these: 0.5 h, read-out: %NTCP binding, screening Myrcludex B-FITC binding, 10 µM drug, Prestwick library.
`C=C1C[C@@H]2[C@H](CC[C@]3(C)C(=O)CC[C@@H]23)[C@@]2(C)C=CC(=O)C=C12` [Exemestane]: the remaining activity at 10 µM was found to be 84.2%.

As to `C[C@@H]1C[C@H]2[C@@H]3C[C@H](F)C4=CC(=O)C=C[C@]4(C)[C@@]3(F)[C@@H](O)C[C@]2(C)[C@@]1(O)C(=O)COC(=O)C(C)(C)C` [Flumethasone pivalate], the remaining activity at 10 µM came out at 32.5%.

The same assay, now with this note: screening Myrcludex B-FITC binding, 10 µM drug.
The molecule `CC[C@@H](CO)NCCN[C@@H](CC)CO` [Ethambutol dihydrochloride] gave a B-score binding assay of 0.312.

On to `CCN(CC)C(=O)c1ccc(O)c(OC)c1` [Ethamivan], for which the B-score binding assay came out at 24.366.

With `C#C[C@]1(O)CC[C@H]2[C@@H]3CCc4cc(O)ccc4[C@H]3CC[C@@]21C` [Ethinylestradiol], the B-score binding assay is listed as -0.714.

With `CCc1cc(C(N)=S)ccn1` [Ethionamide], the B-score binding assay is -2.732.

`C#C[C@]1(OC(C)=O)CC[C@H]2[C@@H]3CCC4=C[C@@H](OC(C)=O)CC[C@@H]4[C@H]3CC[C@@]21C` [Ethynodiol diacetate] had a B-score binding assay of -0.591.

As to `C#C[C@]1(O)CC[C@H]2[C@@H]3CCc4cc(OC)ccc4[C@H]3CC[C@@]21C` [Ethynylestradiol 3-methyl ether], the B-score binding assay is listed as -0.209.

`CCc1cccc(CC)c1NC(=O)CN(CC(=O)O)CC(=O)O` [Etifenin] yielded a B-score binding assay of -0.181.

Molecule `CCNCC(O)c1cccc(O)c1` (stereo not drawn) [Etilefrine hydrochloride] registered a B-score binding assay of -0.371.

`CCc1cccc2c3c([nH]c12)C(CC)(CC(=O)O)OCC3` (stereo not drawn) [Etodolac] showed a B-score binding assay of -3.951.

The molecule `O=C(OCCOCCO)c1ccccc1Nc1cccc(C(F)(F)F)c1` [Etofenamate] showed a B-score binding assay of -4.604.

Molecule `C=C1C[C@@H]2[C@H](CC[C@]3(C)C(=O)CC[C@@H]23)[C@@]2(C)C=CC(=O)C=C12` [Exemestane] showed a B-score binding assay of 0.659.

For the molecule `CC(=O)OCC(CCn1cnc2cnc(N)nc21)COC(C)=O` [Famciclovir], the B-score binding assay was -0.314.

On to `NC(=O)OCC(COC(N)=O)c1ccccc1` [Felbamate], for which the B-score binding assay is listed as -0.478.

Molecule `O=C(O)Cc1ccc(-c2ccccc2)cc1` [Felbinac] showed a B-score binding assay of 0.963.

As to `CCOC(=O)C1=C(C)NC(C)=C(C(=O)OC)C1c1cccc(Cl)c1Cl` (stereo not drawn) [Felodipine], the B-score binding assay is listed as -1.258.

`CC(C)OC(=O)C(C)(C)Oc1ccc(C(=O)c2ccc(Cl)cc2)cc1` [Fenofibrate] showed a B-score binding assay of -2.2.

Take `Oc1ccc(C2CNCCc3c2cc(O)c(O)c3Cl)cc1` (stereo not drawn) [Fenoldopam]: the B-score binding assay is -2.435.

In turn, `CC(C)(C(=O)O)c1ccc(C(O)CCCN2CCC(C(O)(c3ccccc3)c3ccccc3)CC2)cc1` (stereo not drawn) [Fexofenadine HCl] came in with a B-score binding assay of -0.157.

The molecule `O=C(COc1ccc(Cl)cc1)N1CCN(Cc2ccc3c(c2)OCO3)CC1` [Fipexide hydrochloride] had a B-score binding assay of -0.978.

`CS(=O)(=O)c1ccc([C@@H](O)[C@@H](CF)NC(=O)C(Cl)Cl)cc1` [Florfenicol] came in with a B-score binding assay of -1.225.

Consider `OC(Cn1cncn1)(Cn1cncn1)c1ccc(F)cc1F` [Fluconazole], for which the B-score binding assay is given as -0.834.

`O=C(O)c1ccccc1Nc1cccc(C(F)(F)F)c1` [Flufenamic Acid, Flufenamic acid] came in with a B-score binding assay of -1.667.

`C[C@@H]1C[C@H]2[C@@H]3C[C@H](F)C4=CC(=O)C=C[C@]4(C)[C@@]3(F)[C@@H](O)C[C@]2(C)[C@@]1(O)C(=O)COC(=O)C(C)(C)C` [Flumethasone pivalate] came in with a B-score binding assay of -0.33.

The molecule `Cc1c(Nc2ncccc2C(=O)O)cccc1C(F)(F)F` [Flunixin meglumine] gave a B-score binding assay of -1.258.

Take `CC(=O)OCC(=O)[C@@]12OC(C)(C)O[C@@H]1C[C@H]1[C@@H]3C[C@H](F)C4=CC(=O)C=C[C@]4(C)[C@@]3(F)[C@@H](O)C[C@@]12C` [Fluocinonide]: the B-score binding assay is given as -0.282.

Regarding `CC(=O)[C@@]1(O)CC[C@H]2[C@@H]3C[C@H](C)C4=CC(=O)C=C[C@]4(C)[C@@]3(F)[C@@H](O)C[C@@]21C` [Fluorometholone], the B-score binding assay was 0.269.

`OCCN1CCN(CCCN2c3ccccc3Sc3ccc(C(F)(F)F)cc32)CC1` [Fluphenazine dihydrochloride] yielded a B-score binding assay of -0.9.

`CC(C(=O)O)c1ccc(-c2ccccc2)c(F)c1` (stereo not drawn) [Flurbiprofen] displayed a B-score binding assay of 1.247.

With `O=C1NCN(c2ccccc2)C12CCN(CCCC(c1ccc(F)cc1)c1ccc(F)cc1)CC2` [Fluspirilen], the B-score binding assay is recorded as -0.65.

In the case of `CC(C)n1c(/C=C/C(O)CC(O)CC(=O)O)c(-c2ccc(F)cc2)c2ccccc21` (stereo not drawn) [Fluvastatin sodium salt], the B-score binding assay is listed as -1.788.

For `COCCCC/C(=N\OCCN)c1ccc(C(F)(F)F)cc1` [Fluvoxamine maleate], the B-score binding assay was -0.934.

In turn, `Cl.O=C1OC(CN2CCOCC2)CN1/N=C/c1ccc([N+](=O)[O-])o1` (stereo not drawn) [Furaltadone hydrochloride] returned a B-score binding assay of -0.58.

Take `CC(=O)O[C@H]1C[C@@]2(C)[C@@H](C[C@@H](O)[C@H]3[C@@]4(C)CC[C@@H](O)[C@@H](C)[C@@H]4CC[C@@]32C)/C1=C(\CCC=C(C)C)C(=O)O` [Fusidic acid sodium salt]: the B-score binding assay was determined as 0.137.

With `COc1ccc(-c2ccc(=N)n(CCCC(=O)O)n2)cc1` [Gabazine bromide], the B-score binding assay is -1.532.

In the case of `CCOC(=O)c1ccc(OC(=O)CCCCCN=C(N)N)cc1.CS(=O)(=O)O` [Gabexate mesilate], the B-score binding assay is listed as -2.773.

With `CC[N+](CC)(CC)CCOc1cccc(OCC[N+](CC)(CC)CC)c1OCC[N+](CC)(CC)CC` [Gallamine triethiodide], the B-score binding assay is on record as -0.932.

Consider `COc1c(N2CCNC(C)C2)c(F)cc2c(=O)c(C(=O)O)cn(C3CC3)c12` (stereo not drawn) [Gatifloxacin], for which the B-score binding assay was 1.44.

Molecule `COc1cc2ncnc(Nc3ccc(F)c(Cl)c3)c2cc1OCCCN1CCOCC1` [Gefitinib] registered a B-score binding assay of -0.451.

As for `Cc1ccc(S(=O)(=O)NC(=O)NN2CC3CCCC3C2)cc1` (stereo not drawn) [Gliclazide], the B-score binding assay was -1.775.

In turn, `COC1=CC(=O)C[C@@H](C)[C@]12Oc1c(Cl)c(OC)cc(OC)c1C2=O` [Griseofulvin] displayed a B-score binding assay of 0.055.

Take `COc1ccccc1OCC(O)CO` (stereo not drawn) [Guaifenesin]: the B-score binding assay was -0.891.

Regarding `N=C(N)N/N=C/c1c(Cl)cccc1Cl` [Guanabenz acetate], the B-score binding assay is recorded as 2.599.

`N=C(N)NC(=O)Cc1c(Cl)cccc1Cl` [Guanfacine hydrochloride]: the B-score binding assay was -0.387.

For `CC1(C)O[C@@H]2C[C@H]3[C@@H]4CCC5=CC(=O)CC[C@]5(C)[C@@]4(F)[C@@H](O)C[C@]3(C)[C@]2(C(=O)CCl)O1` [Halcinonide], the B-score binding assay is -0.333.

Turning to `C[N+]1(C)CCOC(O)(c2ccc(-c3ccc(C4(O)C[N+](C)(C)CCO4)cc3)cc2)C1.[Br-].[Br-]` (stereo not drawn) [Hemicholinium bromide], the B-score binding assay was determined as 1.023.

With `COc1ccc([C@@H]2CC(=O)c3c(O)cc(O[C@@H]4O[C@H](CO[C@@H]5O[C@@H](C)[C@H](O)[C@@H](O)[C@H]5O)[C@@H](O)[C@H](O)[C@H]4O)cc3O2)cc1O` [Hesperidin], the B-score binding assay is on record as -0.676.

The molecule `CC[C@H](c1ccc(O)cc1)[C@@H](CC)c1ccc(O)cc1` [Hexestrol] returned a B-score binding assay of -1.833.

As for `CCCCC(CC)CN1CN(CC(CC)CCCC)CC(C)(N)C1` (stereo not drawn) [Hexetidine], the B-score binding assay is recorded as -1.294.

`COc1ccc(CCN)cc1OC` [Homoveratrylamine] had a B-score binding assay of -0.867.

Take `CCN(CC)CCNc1ccc(CO)c2sc3ccccc3c(=O)c12` [Hycanthone]: the B-score binding assay is -0.124.

`NS(=O)(=O)c1cc2c(cc1Cl)NCNS2(=O)=O` [Hydrochlorothiazide]: the B-score binding assay is recorded as -0.565.

In turn, `C[C@]12CCC(=O)C=C1CC[C@@H]1[C@@H]2[C@@H](O)C[C@@]2(C)[C@H]1CC[C@]2(O)C(=O)CO` [Hydrocortisone base] gave a B-score binding assay of -0.211.

`CCCCCN(C)CCC(O)(P(=O)([O-])O)P(=O)(O)O.[Na+]` [Ibandronate sodium]: the B-score binding assay is on record as -2.926.

Take `c1ccc2c(c1)OCC(C1=NCCN1)O2` (stereo not drawn) [Idazoxan hydrochloride]: the B-score binding assay is on record as -0.108.

The molecule `COC1=C(OC)C(=O)C(CCCCCCCCCCO)=C(C)C1=O` [Idebenone] displayed a B-score binding assay of -0.743.

On to `O=c1[nH]c(=O)n([C@H]2C[C@H](O)[C@@H](CO)O2)cc1I` [Idoxuridine], for which the B-score binding assay was -0.75.

The same assay, now with this note: screening Myrcludex B-FITC binding, 10 µM drug, Prestwick library.
Consider `C#C[C@]1(O)CC[C@H]2[C@@H]3CCc4cc(OC)ccc4[C@H]3CC[C@@]21C` [Ethynylestradiol 3-methyl ether], for which the “%NTCP binding” value worked out at 94.5203%.

For the molecule `O=C1NCN(c2ccccc2)C12CCN(CCCC(c1ccc(F)cc1)c1ccc(F)cc1)CC2` [Fluspirilen], the “%NTCP binding” value came to 115.162%.

In the case of `Cl.O=C1OC(CN2CCOCC2)CN1/N=C/c1ccc([N+](=O)[O-])o1` (stereo not drawn) [Furaltadone hydrochloride], the “%NTCP binding” value worked out at 86.4472%.

Turning to `COc1ccc([C@@H]2CC(=O)c3c(O)cc(O[C@@H]4O[C@H](CO[C@@H]5O[C@@H](C)[C@H](O)[C@@H](O)[C@H]5O)[C@@H](O)[C@H](O)[C@H]4O)cc3O2)cc1O` [Hesperidin], the “%NTCP binding” value stood at 50.2802%.

In the case of `COc1ccc(CCN)cc1OC` [Homoveratrylamine], the “%NTCP binding” value came out at 53.5961%.

For the molecule `C[C@]12CCC(=O)C=C1CC[C@@H]1[C@@H]2[C@@H](O)C[C@@]2(C)[C@H]1CC[C@]2(O)C(=O)CO` [Hydrocortisone base], the “%NTCP binding” value was determined as 66.5265%.

Still in this assay, the particulars now being: screening Myrcludex B-FITC binding, 10 µM drug; B-score.
Molecule `COC(=O)Nc1nc2ccc(Sc3ccccc3)cc2[nH]1` [Fenbendazole] showed a B-score binding assay of 2.801.

`CN1CCN(c2c(F)cc3c(=O)c(C(=O)O)cn(CCF)c3c2F)CC1` [Fleroxacin]: the B-score binding assay is reported as 1.459.

Molecule `NS(=O)(=O)c1cc(C(=O)O)c(NCc2ccco2)cc1Cl` [Furosemide] displayed a B-score binding assay of 1.906.

The molecule `Clc1cc(Cl)c(OCC#CI)cc1Cl` [Haloprogin] gave a B-score binding assay of 4.032.

`CC(N)CCCC(C)(C)O` (stereo not drawn) [Heptaminol hydrochloride] came in with a B-score binding assay of 1.772.
